The text below walks through data of article PMC8765293, “Inhibitor-Resistant Mutants Give Important Insights into Candida albicans ABC Transporter Cdr1 Substrate Specificity and Help Elucidate Efflux Pump Inhibition” (Antimicrobial Agents and Chemotherapy, 2022).

Sequences of proteins named here, by UniProt entry; tags and fusion partners are left off. A change or cut given only in a name is not applied to a line headed by its entry.
UniProt Q5ANA3: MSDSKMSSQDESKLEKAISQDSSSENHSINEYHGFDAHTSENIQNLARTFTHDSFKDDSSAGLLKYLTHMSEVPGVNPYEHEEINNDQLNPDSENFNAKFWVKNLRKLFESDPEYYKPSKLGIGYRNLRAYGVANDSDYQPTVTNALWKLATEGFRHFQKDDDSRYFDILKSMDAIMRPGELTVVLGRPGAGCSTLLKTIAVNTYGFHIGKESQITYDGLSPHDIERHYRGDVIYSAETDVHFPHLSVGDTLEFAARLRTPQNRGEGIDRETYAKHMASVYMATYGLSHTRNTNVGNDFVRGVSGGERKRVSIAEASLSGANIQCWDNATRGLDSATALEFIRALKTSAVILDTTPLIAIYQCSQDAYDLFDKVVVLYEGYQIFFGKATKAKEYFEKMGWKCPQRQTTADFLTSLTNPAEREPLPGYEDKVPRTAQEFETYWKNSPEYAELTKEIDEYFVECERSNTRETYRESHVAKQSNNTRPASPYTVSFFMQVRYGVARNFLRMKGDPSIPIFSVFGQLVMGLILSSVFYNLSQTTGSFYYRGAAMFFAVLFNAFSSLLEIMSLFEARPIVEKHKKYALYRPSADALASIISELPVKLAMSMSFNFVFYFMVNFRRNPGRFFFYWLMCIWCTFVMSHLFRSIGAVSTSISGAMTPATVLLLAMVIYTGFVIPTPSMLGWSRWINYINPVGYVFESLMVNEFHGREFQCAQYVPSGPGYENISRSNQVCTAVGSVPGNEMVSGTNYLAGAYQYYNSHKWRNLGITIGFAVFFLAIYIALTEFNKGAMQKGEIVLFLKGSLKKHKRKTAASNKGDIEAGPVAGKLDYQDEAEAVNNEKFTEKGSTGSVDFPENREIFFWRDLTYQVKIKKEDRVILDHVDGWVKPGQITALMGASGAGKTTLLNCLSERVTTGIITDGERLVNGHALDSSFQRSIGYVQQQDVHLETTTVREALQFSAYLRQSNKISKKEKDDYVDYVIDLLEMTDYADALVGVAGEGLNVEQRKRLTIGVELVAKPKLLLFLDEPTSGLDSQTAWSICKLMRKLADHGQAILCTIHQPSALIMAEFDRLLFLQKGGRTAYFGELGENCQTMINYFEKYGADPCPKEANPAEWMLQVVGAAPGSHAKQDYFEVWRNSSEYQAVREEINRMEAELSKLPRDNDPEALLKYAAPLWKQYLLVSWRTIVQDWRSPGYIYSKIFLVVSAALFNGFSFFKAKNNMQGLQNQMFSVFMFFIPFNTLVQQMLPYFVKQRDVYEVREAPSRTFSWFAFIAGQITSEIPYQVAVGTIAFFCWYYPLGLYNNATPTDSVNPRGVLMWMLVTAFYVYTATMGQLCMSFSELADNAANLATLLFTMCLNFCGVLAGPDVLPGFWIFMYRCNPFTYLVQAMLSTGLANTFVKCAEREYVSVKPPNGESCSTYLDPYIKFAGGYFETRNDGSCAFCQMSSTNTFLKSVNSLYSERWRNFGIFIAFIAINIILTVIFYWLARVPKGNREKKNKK

The target of this test is wt Cdr1 ATPase activity (Candida albicans, UniProt Q5ANA3). In kind it is biochemical.

Regarding beauvericin, the IC50 (usually the concentration at which inhibition is half-maximal) (read-out: IC50 for inhibition of Cdr1 ATPase activity, from Fig. 4) was determined as 240 nM. Further, the Ki – broadly, the equilibrium dissociation constant of an inhibitor or competing ligand from its target – (read-out: Ki (Cdr1 ATPase activity), Dixon plot) was determined as 80 ± 10 nM.
